# Laboratory results: patent US4576625A, “Fertilizers containing urea with urease inhibitors” (Huls Aktiengesellschaft, priority 1983, dated 1986)
# Only a part of the results on these compounds is given; other tests are left out.
# Experiment: Critical relative humidity (water activity) of fertilizer solutions
# Assay type: physicochemical
# Settings: 40% ammonium nitrate solution
substance,measurement,setting,value
ammonium nitrate,CRH value (critical relative humidity),10° C.,76.5 °
same,CRH value (critical relative humidity),20° C.,79.4%
same,CRH value (critical relative humidity),30° C.,76.7%
